Experimental data as given in patent US8680146B2, “Organic compounds” (Novartis AG, priority 2008, dated 2014).

Assay: Solubility study of FTY720 salts in various solvents
Assay type: physicochemical
Settings: approx. values at 25° C.
Experimental: The solubilities of various salts were assessed and are given in the table below (approx. values at 25° C., g/100 ml %): […]

Solubility in Acetone (Acetone): 0.06 g/100 ml %
Solubility in Ethanol (Ethanol): 0.07 g/100 ml %
Solubility in Ethylacetate (Ethylacetate): 0.05 g/100 ml %
Solubility in Isopropanol (Isopropanol): 0.09 g/100 ml %
Solubility in Water (Water): 0.036 g/100 ml %
Substance: Tartrate
